Data taken from the NIST ThermoML archive (doi:10.1016/j.fluid.2016.07.025).
Numbers after ± are expanded uncertainties.

Conditions: Rayleigh light scattering; for thermal diffusivity: Fluid (supercritical or subcritical phases); for speed of sound: Liquid

CCCCOCCCC [dibutyl ether]
thermal diffusivity (591.6 K, 4000 kPa): 4.36e-08 ± 1.4e-09 m2/s | thermal diffusivity (591.7 K, 6500 kPa): 5.6e-08 ± 1.6e-09 m2/s | thermal diffusivity (592.77 K, 3500 kPa): 3.43e-08 ± 1.1e-09 m2/s | speed of sound (592.77 K, 3500 kPa): 114.69 ± 2 m/s | thermal diffusivity (592.77 K, 3750 kPa): 3.45e-08 ± 1.2e-09 m2/s | thermal diffusivity (592.89 K, 4000 kPa): 4.27e-08 ± 1.4e-09 m2/s | thermal diffusivity (592.89 K, 4500 kPa): 4.96e-08 ± 1.5e-09 m2/s | speed of sound (593.04 K, 4500 kPa): 183.43 ± 2.1 m/s | thermal diffusivity (593.39 K, 5500 kPa): 5.39e-08 ± 1.6e-09 m2/s | speed of sound (593.39 K, 5500 kPa): 233.22 ± 2.9 m/s | speed of sound (593.6 K, 6500 kPa): 267.17 ± 2.4 m/s | thermal diffusivity (593.77 K, 6500 kPa): 5.59e-08 ± 1.6e-09 m2/s | thermal diffusivity (593.77 K, 7500 kPa): 5.73e-08 ± 1.6e-09 m2/s | speed of sound (593.77 K, 7500 kPa): 296.8 ± 2.5 m/s | thermal diffusivity (594.02 K, 4500 kPa): 4.93e-08 ± 1.5e-09 m2/s | thermal diffusivity (594.73 K, 3750 kPa): 3.31e-08 ± 1.1e-09 m2/s | thermal diffusivity (594.73 K, 4000 kPa): 4.12e-08 ± 1.6e-09 m2/s | thermal diffusivity (594.85 K, 3500 kPa): 4.25e-08 ± 1.8e-09 m2/s | thermal diffusivity (595.35 K, 5500 kPa): 5.37e-08 ± 1.6e-09 m2/s | thermal diffusivity (595.98 K, 4500 kPa): 4.88e-08 ± 1.4e-09 m2/s | thermal diffusivity (596.07 K, 4000 kPa): 4.06e-08 ± 1.3e-09 m2/s | thermal diffusivity (596.74 K, 6500 kPa): 5.58e-08 ± 1.6e-09 m2/s | thermal diffusivity (596.74 K, 7500 kPa): 5.73e-08 ± 1.6e-09 m2/s | thermal diffusivity (596.78 K, 3500 kPa): 5.4e-08 ± 3e-09 m2/s | thermal diffusivity (596.78 K, 3750 kPa): 3.2e-08 ± 1e-09 m2/s | thermal diffusivity (596.85 K, 5500 kPa): 5.36e-08 ± 1.6e-09 m2/s | thermal diffusivity (598.77 K, 5500 kPa): 5.34e-08 ± 1.6e-09 m2/s | thermal diffusivity (598.89 K, 6500 kPa): 5.57e-08 ± 1.6e-09 m2/s | thermal diffusivity (598.89 K, 7500 kPa): 5.74e-08 ± 1.6e-09 m2/s | thermal diffusivity (598.96 K, 3500 kPa): 6.51e-08 ± 4.1e-09 m2/s | speed of sound (598.96 K, 3500 kPa): 90.21 ± 1.7 m/s | thermal diffusivity (598.96 K, 3750 kPa): 3.34e-08 ± 1.9e-09 m2/s | thermal diffusivity (599.04 K, 4000 kPa): 3.9e-08 ± 1.3e-09 m2/s | thermal diffusivity (599.12 K, 4500 kPa): 4.77e-08 ± 1.4e-09 m2/s | speed of sound (599.73 K, 4500 kPa): 148.57 ± 3.7 m/s | speed of sound (599.77 K, 5500 kPa): 205.29 ± 3.1 m/s | speed of sound (599.79 K, 6500 kPa): 243.74 ± 2.5 m/s | speed of sound (599.89 K, 7500 kPa): 273.8 ± 2.4 m/s | thermal diffusivity (601.45 K, 5500 kPa): 5.32e-08 ± 1.5e-09 m2/s | thermal diffusivity (601.54 K, 3500 kPa): 7.51e-08 ± 4.7e-09 m2/s | thermal diffusivity (601.54 K, 3750 kPa): 4.06e-08 ± 2.5e-09 m2/s | thermal diffusivity (601.54 K, 4000 kPa): 3.83e-08 ± 1.2e-09 m2/s | thermal diffusivity (601.54 K, 4500 kPa): 4.72e-08 ± 1.4e-09 m2/s | thermal diffusivity (603.05 K, 4500 kPa): 4.71e-08 ± 1.4e-09 m2/s | thermal diffusivity (603.12 K, 4000 kPa): 3.84e-08 ± 1.3e-09 m2/s | thermal diffusivity (603.27 K, 6500 kPa): 5.56e-08 ± 1.6e-09 m2/s | thermal diffusivity (603.27 K, 7500 kPa): 5.75e-08 ± 1.6e-09 m2/s | speed of sound (603.82 K, 4500 kPa): 132.6 ± 1.6 m/s | thermal diffusivity (603.96 K, 3500 kPa): 8.55e-08 ± 4.6e-09 m2/s | speed of sound (603.96 K, 3500 kPa): 95.38 ± 1.3 m/s | thermal diffusivity (603.96 K, 3750 kPa): 5.1e-08 ± 4.4e-09 m2/s | thermal diffusivity (603.99 K, 5500 kPa): 5.31e-08 ± 1.6e-09 m2/s | speed of sound (603.99 K, 5500 kPa): 189.07 ± 3.1 m/s | speed of sound (604.21 K, 6500 kPa): 227.74 ± 2.5 m/s | speed of sound (604.27 K, 7500 kPa): 258.48 ± 2.3 m/s | thermal diffusivity (606.15 K, 3500 kPa): 9.18e-08 ± 4.5e-09 m2/s | thermal diffusivity (606.15 K, 3750 kPa): 6.01e-08 ± 3.6e-09 m2/s | thermal diffusivity (606.15 K, 4000 kPa): 3.93e-08 ± 1.2e-09 m2/s | thermal diffusivity (606.15 K, 4500 kPa): 4.69e-08 ± 1.5e-09 m2/s | speed of sound (607.34 K, 4500 kPa): 126.78 ± 1.4 m/s | speed of sound (607.52 K, 5500 kPa): 175.37 ± 2.9 m/s | speed of sound (607.76 K, 3500 kPa): 102.4 ± 1 m/s | speed of sound (607.96 K, 6500 kPa): 215.37 ± 2.4 m/s | thermal diffusivity (608.05 K, 4000 kPa): 4.03e-08 ± 1.3e-09 m2/s | thermal diffusivity (608.2 K, 6500 kPa): 5.56e-08 ± 1.6e-09 m2/s | thermal diffusivity (608.2 K, 7500 kPa): 5.77e-08 ± 1.7e-09 m2/s | speed of sound (608.2 K, 7500 kPa): 244.31 ± 2.3 m/s | thermal diffusivity (608.32 K, 4500 kPa): 4.68e-08 ± 1.4e-09 m2/s | thermal diffusivity (608.52 K, 5500 kPa): 5.29e-08 ± 1.6e-09 m2/s | thermal diffusivity (608.76 K, 3500 kPa): 9.76e-08 ± 4.4e-09 m2/s | thermal diffusivity (608.76 K, 3750 kPa): 6.8e-08 ± 2.3e-09 m2/s | thermal diffusivity (611.06 K, 3500 kPa): 1.02e-07 ± 4.3e-09 m2/s | thermal diffusivity (611.06 K, 3750 kPa): 7.39e-08 ± 3.9e-09 m2/s | thermal diffusivity (611.06 K, 4000 kPa): 4.62e-08 ± 1.6e-09 m2/s | thermal diffusivity (611.06 K, 4500 kPa): 4.67e-08 ± 1.4e-09 m2/s | speed of sound (612.08 K, 6500 kPa): 204.42 ± 2.5 m/s | speed of sound (612.41 K, 4500 kPa): 119.01 ± 0.99 m/s | speed of sound (612.44 K, 7500 kPa): 231.43 ± 2.1 m/s | thermal diffusivity (612.76 K, 5500 kPa): 5.29e-08 ± 1.6e-09 m2/s | speed of sound (612.76 K, 5500 kPa): 155.8 ± 2.7 m/s | thermal diffusivity (613.1 K, 4000 kPa): 5.12e-08 ± 1.9e-09 m2/s | thermal diffusivity (613.13 K, 3500 kPa): 1.06e-07 ± 4.3e-09 m2/s | thermal diffusivity (613.13 K, 3750 kPa): 7.87e-08 ± 3.9e-09 m2/s | thermal diffusivity (613.18 K, 4500 kPa): 4.67e-08 ± 1.4e-09 m2/s | thermal diffusivity (613.44 K, 6500 kPa): 5.57e-08 ± 1.6e-09 m2/s | thermal diffusivity (613.44 K, 7500 kPa): 5.8e-08 ± 1.7e-09 m2/s | speed of sound (614.13 K, 3500 kPa): 114.25 ± 0.8 m/s | speed of sound (617.26 K, 4500 kPa): 117.55 ± 0.87 m/s | speed of sound (617.59 K, 5500 kPa): 146.8 ± 2.4 m/s | speed of sound (617.77 K, 3500 kPa): 120.4 ± 0.79 m/s | speed of sound (617.89 K, 6500 kPa): 190.53 ± 2.3 m/s | speed of sound (618.03 K, 7500 kPa): 215.06 ± 2 m/s | speed of sound (622.62 K, 4500 kPa): 123.77 ± 0.82 m/s | speed of sound (622.88 K, 5500 kPa): 141.99 ± 1.9 m/s | speed of sound (623.3 K, 6500 kPa): 178.81 ± 2.1 m/s | speed of sound (623.42 K, 7500 kPa): 202.08 ± 1.9 m/s | speed of sound (624.61 K, 3500 kPa): 132.31 ± 0.85 m/s | speed of sound (627.48 K, 4500 kPa): 131.02 ± 0.83 m/s | speed of sound (627.58 K, 5500 kPa): 142.32 ± 1.6 m/s | speed of sound (628.12 K, 6500 kPa): 174.89 ± 1.9 m/s | speed of sound (628.37 K, 3500 kPa): 138.25 ± 0.87 m/s | speed of sound (628.37 K, 7500 kPa): 195.46 ± 1.7 m/s | speed of sound (632.52 K, 4500 kPa): 139.67 ± 0.86 m/s | speed of sound (632.87 K, 5500 kPa): 144.73 ± 1.2 m/s | speed of sound (633.02 K, 3500 kPa): 146.63 ± 0.91 m/s | speed of sound (633.36 K, 6500 kPa): 169.7 ± 1.7 m/s | speed of sound (633.89 K, 7500 kPa): 188.26 ± 1.6 m/s | speed of sound (636.92 K, 6500 kPa): 166.48 ± 1.5 m/s | speed of sound (637.28 K, 4500 kPa): 147.53 ± 0.9 m/s | speed of sound (637.41 K, 7500 kPa): 184.9 ± 1.6 m/s | speed of sound (637.84 K, 5500 kPa): 148.3 ± 1.1 m/s | speed of sound (640.05 K, 3500 kPa): 158.02 ± 0.96 m/s | speed of sound (643.67 K, 3500 kPa): 164.41 ± 0.98 m/s | speed of sound (644.05 K, 6500 kPa): 165.61 ± 1.3 m/s | speed of sound (644.15 K, 5500 kPa): 155.54 ± 0.95 m/s | speed of sound (644.29 K, 4500 kPa): 159.81 ± 0.96 m/s | speed of sound (644.35 K, 7500 kPa): 182.38 ± 1.5 m/s | speed of sound (648.28 K, 6500 kPa): 165.79 ± 1.1 m/s | speed of sound (648.38 K, 7500 kPa): 183.05 ± 1.5 m/s | speed of sound (649.22 K, 5500 kPa): 165.88 ± 0.97 m/s | speed of sound (649.31 K, 4500 kPa): 169.65 ± 1 m/s | speed of sound (649.66 K, 3500 kPa): 174.95 ± 1 m/s | speed of sound (651.37 K, 6500 kPa): 168.71 ± 1.1 m/s | speed of sound (651.47 K, 7500 kPa): 183.8 ± 1.4 m/s | speed of sound (652.78 K, 3500 kPa): 182.03 ± 1.1 m/s | speed of sound (653.1 K, 5500 kPa): 173.23 ± 1 m/s | speed of sound (653.61 K, 4500 kPa): 178.48 ± 1 m/s | speed of sound (657.54 K, 5500 kPa): 181.63 ± 1.1 m/s | speed of sound (658.91 K, 4500 kPa): 189.3 ± 1.1 m/s | speed of sound (659.26 K, 3500 kPa): 195.63 ± 1.1 m/s | speed of sound (659.56 K, 6500 kPa): 180.93 ± 1.1 m/s | speed of sound (659.71 K, 7500 kPa): 190.24 ± 1.2 m/s | speed of sound (663.28 K, 7500 kPa): 193.08 ± 1.1 m/s | speed of sound (663.77 K, 3500 kPa): 204.23 ± 1.2 m/s | speed of sound (663.99 K, 4500 kPa): 199.13 ± 1.1 m/s | speed of sound (664.58 K, 6500 kPa): 192.76 ± 1.1 m/s | speed of sound (664.68 K, 5500 kPa): 197.15 ± 1.1 m/s | speed of sound (668.06 K, 5500 kPa): 204.67 ± 1.2 m/s | speed of sound (668.13 K, 6500 kPa): 200.59 ± 1.1 m/s | speed of sound (668.18 K, 4500 kPa): 208.75 ± 1.2 m/s | speed of sound (668.2 K, 3500 kPa): 214.84 ± 1.2 m/s | speed of sound (668.28 K, 7500 kPa): 199.93 ± 1.1 m/s | speed of sound (672.69 K, 3500 kPa): 224.44 ± 1.2 m/s | speed of sound (673.3 K, 4500 kPa): 220 ± 1.2 m/s | speed of sound (673.3 K, 5500 kPa): 214.18 ± 1.2 m/s | speed of sound (673.38 K, 6500 kPa): 210.65 ± 1.2 m/s | speed of sound (673.39 K, 7500 kPa): 207.8 ± 1.2 m/s
